Columns and labels:
FcγRIIb = assay: Cisbio Tag-lite displacement (FRET) on HEK293 cells expressing terbium-labelled FcγRIIb; competitor human IgG-d2
FcγRI expressed on cells = FcγRI expressed on cells (UniProt P12314); assay: Cisbio Tag-lite displacement (FRET) on HEK293 cells expressing terbium-labelled FcγRI; competitor human IgG-d2

Protein sequences, listed by entry. Tags and fused reporters are not part of them. Residues count along the entry.
UniProt P12314, 16-374 limits assumed: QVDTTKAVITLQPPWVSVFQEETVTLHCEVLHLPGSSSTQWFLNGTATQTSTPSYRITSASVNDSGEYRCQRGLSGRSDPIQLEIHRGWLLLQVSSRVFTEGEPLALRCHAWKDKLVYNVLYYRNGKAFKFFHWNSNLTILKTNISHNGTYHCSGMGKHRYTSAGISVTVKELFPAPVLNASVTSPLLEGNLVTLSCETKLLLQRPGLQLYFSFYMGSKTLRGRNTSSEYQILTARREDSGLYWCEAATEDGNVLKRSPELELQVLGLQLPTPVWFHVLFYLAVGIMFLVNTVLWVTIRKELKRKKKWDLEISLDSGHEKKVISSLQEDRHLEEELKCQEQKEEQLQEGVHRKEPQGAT

## Cetuximab (antibody)
FcγRIIb
  EC50: 9.75 µM
FcγRI expressed on cells
  EC50: 0.0331 µM
